The values below come from article PMC7046148 (Scientific Reports, 2020).

The chains behind the UniProt entries cited, without tags or fusion partners.
UniProt Q9UJQ4, whole entry G416A: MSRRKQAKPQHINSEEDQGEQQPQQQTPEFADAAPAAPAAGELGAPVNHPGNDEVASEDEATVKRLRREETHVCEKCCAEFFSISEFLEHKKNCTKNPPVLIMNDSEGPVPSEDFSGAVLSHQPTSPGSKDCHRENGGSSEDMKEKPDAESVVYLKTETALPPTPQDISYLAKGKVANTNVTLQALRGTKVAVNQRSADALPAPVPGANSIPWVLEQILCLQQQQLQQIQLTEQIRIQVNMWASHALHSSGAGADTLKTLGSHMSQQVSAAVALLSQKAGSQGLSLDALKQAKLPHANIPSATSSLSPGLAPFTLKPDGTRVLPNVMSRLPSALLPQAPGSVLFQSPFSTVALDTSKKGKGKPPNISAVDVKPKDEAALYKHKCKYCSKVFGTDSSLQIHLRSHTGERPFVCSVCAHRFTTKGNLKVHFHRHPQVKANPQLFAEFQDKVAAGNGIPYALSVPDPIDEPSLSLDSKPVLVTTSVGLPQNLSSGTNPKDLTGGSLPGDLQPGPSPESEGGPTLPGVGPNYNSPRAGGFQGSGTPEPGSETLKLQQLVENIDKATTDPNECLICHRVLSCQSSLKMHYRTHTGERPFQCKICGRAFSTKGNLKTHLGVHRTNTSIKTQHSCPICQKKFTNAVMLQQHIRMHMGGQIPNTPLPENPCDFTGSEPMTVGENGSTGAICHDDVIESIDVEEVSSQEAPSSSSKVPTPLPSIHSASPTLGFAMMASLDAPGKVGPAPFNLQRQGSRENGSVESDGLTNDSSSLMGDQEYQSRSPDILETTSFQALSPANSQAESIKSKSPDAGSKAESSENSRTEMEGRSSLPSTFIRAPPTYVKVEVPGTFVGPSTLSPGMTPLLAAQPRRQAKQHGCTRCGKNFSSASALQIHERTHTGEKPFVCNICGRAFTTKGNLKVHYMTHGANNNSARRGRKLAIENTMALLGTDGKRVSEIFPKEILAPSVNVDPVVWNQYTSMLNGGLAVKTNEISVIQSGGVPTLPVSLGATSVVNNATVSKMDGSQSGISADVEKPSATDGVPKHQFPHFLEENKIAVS

The target of one assay is T1, SALL4^G416A (Homo sapiens, UniProt Q9UJQ4, G416A).
T1 construct: parental hiPSCs were engineered to express a homozygous G416A mutation in the endogenous SALL4 locus; endogenous in cells; host or cells: XCL-1 SALL4^G416A hiPSC clone (1E6), CRISPR/Cas9 knock-in at the endogenous locus
The experiment in a line: SALL4 MFI by high content imaging, XCL-1 SALL4^G416A hiPSCs. To be noted: SALL4^G416A hiPSC clone, 8 h of treatment. In kind it is cell-based. The text has this: High content imaging analysis of SALL4 immunofluorescence with DAPI counterstaining in hiPSCs. […] Data represent the mean +/− SEM from 2 independent experiments.

In a further assay the target is T2, human SALL4 (Homo sapiens, UniProt Q9UJQ4).
T2 construct: expressed in transfected cells; host or cells: Lenti-x 293 CRBN CRISPR KO (CRBN-/-) cells stably expressing human SALL4, transiently transfected with FLAG-CRBN variants
The experiment in a line: Immunoblot of SALL4 degradation in Lenti-x 293 CRBN-/- cells expressing human CRBN variants. In kind it is cell-based. (In general: Immunoblotting shows a protein as a band on a membrane.)

As to `Nc1cccc2c1CN(C1CCC(=O)NC1=O)C2=O` (centres unmarked) [Lenalidomide, lenalidomide], the “effect on SALL4 MFI” value at SALL4^G416A is “unchanged”. The “SALL4 degradation in human cells expressing CRBN with the V388I mutation” value at human SALL4 is on record as “failed to induce SALL4 degradation”.
